Data as given in patent publication US4246340A, “Method and reagent for bioluminiscence” (LKB-Producter AB, priority 1979, dated 1981).

Protein sequences, listed by entry. Tags and fused reporters are not part of them.
UniProt P08659, whole entry: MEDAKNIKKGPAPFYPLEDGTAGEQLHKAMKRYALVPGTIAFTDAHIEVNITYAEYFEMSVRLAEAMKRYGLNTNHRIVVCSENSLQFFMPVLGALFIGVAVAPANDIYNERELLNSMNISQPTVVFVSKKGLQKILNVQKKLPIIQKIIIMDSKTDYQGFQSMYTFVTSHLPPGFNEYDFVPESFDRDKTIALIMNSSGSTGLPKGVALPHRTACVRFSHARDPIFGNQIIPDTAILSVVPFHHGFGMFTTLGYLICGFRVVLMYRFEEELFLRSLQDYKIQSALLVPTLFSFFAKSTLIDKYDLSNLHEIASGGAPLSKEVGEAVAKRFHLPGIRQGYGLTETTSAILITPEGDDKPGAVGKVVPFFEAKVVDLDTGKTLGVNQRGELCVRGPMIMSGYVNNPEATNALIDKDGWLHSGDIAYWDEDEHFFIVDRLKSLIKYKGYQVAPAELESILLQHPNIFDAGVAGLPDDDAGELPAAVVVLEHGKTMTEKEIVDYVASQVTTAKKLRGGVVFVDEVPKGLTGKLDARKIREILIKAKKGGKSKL

Biological target: luciferase (Photinus pyralis, UniProt P08659)
Assay: Light intensity versus time after adding ATP to the luciferase/D-luciferin bioluminescence reagent with additives (FIG. 2)
Conditions: additive 10 μg/ml; D-luciferin 100 μg/ml, 10^-6 M ATP, pH 7.75

## O=C(O)[C@@H]1CSC(c2nc3ccc(O)cc3s2)=N1 [L-luciferin]
  inhibition of the luciferase reaction (light intensity): about 70%
